In US20220409725A1 (Genentech, published 2022):

B1: 4D5 Fab modified to contain Q39E in VH and Q38K in VL (Fab, name in Kabat numbering, V domains shown)
VH: [sequence of about 120 residues omitted]
VL: DIQMTQSPSSLSASVGDRVTITCRASQDVNTAVAWYQKKPGKAPKLLIYSASFLYSGVPSRFSGSRSGTDFTLTISSLQPEDFATYYCQQHYTTPPTFGQGTKVEIKR
notes: also called EKvariable
B2: 4D5 Fab modified to contain Q39K in VH and Q38E in VL (Fab, name in Kabat numbering, V domains shown)
VH: [sequence of about 120 residues omitted]
VL: B1 VL with K38E
notes: also called KEvariable

Target: T1, HER2 (UniProt P04626, in part)
T1 construct: also called ERBB2 (Her-2); p185HER2
Test: SPR

| Binder | Kd |
| --- | --- |
| B1 | 0.67 nM |
| B2 | 0.44 nM |

Substitutions are numbered along the chain they refer to. Numbers in names are those of the source.
